# Values of other authors in publication PMC10390508, “Structural insights into selective small molecule activation of PKG1α” (Communications Biology, 2023).
# Test system: PKG1β
# Settings: PKG1β with 100 nM cGMP vs. PKG1α with 10 nM cGMP; full-length protein; cited from earlier work
row,SMILES,increase in concentration to elicit the same level of activation on PKG1β
1,O=C(O)c1ccc(CN2CCC[C@H](OC(CO)c3cc(Cl)cc(Cl)c3)[C@@H]2c2ccccc2)c([N+](=O)[O-])c1 (stereo partly drawn) [SMA1],12 x
2,Nc1cc(C(=O)O)ccc1CN1CCC[C@H](O[C@@H](CO)c2cc(Cl)cc(Cl)c2)[C@@H]1c1ccccc1 [SMA2],12 x
3,Cc1cc(C(=O)O)ccc1CN1CCC[C@H](O[C@@H](CO)c2cc(Cl)cc(Cl)c2)[C@@H]1c1ccccc1 [SMA3],6.5 x
